By UniProt entry, the sequences of proteins in these tests, tags left out. Where a name states a change or a piece, a line headed by the entry shows the natural chain unless it says otherwise.
UniProt Q99572: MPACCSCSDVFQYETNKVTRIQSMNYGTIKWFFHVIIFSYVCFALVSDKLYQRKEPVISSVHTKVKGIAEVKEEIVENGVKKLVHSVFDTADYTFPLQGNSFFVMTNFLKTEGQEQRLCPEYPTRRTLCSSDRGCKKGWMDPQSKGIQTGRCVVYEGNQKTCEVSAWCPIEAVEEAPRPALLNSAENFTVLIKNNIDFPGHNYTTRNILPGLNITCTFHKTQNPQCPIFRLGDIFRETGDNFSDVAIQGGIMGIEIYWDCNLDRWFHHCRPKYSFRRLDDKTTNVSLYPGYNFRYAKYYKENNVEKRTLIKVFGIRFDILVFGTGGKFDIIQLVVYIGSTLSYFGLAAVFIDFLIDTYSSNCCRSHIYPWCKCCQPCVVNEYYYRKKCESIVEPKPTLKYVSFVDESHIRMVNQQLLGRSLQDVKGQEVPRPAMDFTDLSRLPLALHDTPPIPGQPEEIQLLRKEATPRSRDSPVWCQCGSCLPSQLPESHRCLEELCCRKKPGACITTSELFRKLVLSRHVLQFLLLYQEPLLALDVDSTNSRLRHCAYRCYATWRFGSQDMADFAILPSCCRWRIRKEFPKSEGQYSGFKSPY
UniProt Q64663: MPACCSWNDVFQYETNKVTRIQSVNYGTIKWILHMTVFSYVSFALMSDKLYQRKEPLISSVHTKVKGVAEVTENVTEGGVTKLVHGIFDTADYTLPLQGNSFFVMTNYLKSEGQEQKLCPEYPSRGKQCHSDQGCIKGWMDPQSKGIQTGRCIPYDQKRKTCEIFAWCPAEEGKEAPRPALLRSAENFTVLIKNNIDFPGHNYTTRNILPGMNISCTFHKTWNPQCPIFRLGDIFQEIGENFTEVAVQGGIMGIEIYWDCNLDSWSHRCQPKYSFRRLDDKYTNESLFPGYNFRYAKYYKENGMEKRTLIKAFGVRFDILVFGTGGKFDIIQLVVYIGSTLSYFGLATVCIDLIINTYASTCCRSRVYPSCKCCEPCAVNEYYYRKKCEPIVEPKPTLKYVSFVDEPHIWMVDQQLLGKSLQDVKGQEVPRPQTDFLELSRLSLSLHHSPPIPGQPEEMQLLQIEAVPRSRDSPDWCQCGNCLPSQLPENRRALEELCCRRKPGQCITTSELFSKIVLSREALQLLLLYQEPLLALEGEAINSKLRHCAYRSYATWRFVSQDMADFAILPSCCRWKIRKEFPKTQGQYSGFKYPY

According to patent US9102686B2, “5,6,7,8,9,10-hexahydro-6,10-epimino[1,2,4]triazolo[4,3-a]azocines as P2X7 modulators” (Janssen Pharmaceutica NV, priority 2013, dated 2015):

What was measured:
P2X7 [1] = molecular target: T1, P2X7 (Homo sapiens (Human), UniProt Q99572); assay: Ca2+ flux (FLIPR) in 1321N1 cells expressing recombinant human P2X7 channel; type: cell-based
P2X7 [2] = molecular target: T1, P2X7; assay: Radioligand binding, human P2X7-1321N1 cell membranes, tritiated A-804598
Description: P2X7 Antagonism in Recombinant hP2X7 Cells: (a) Ca^2+ Flux (b) Radioligand Binding
(B) Radioligand binding: human or rat P2X7-1321N1 cells were collected and frozen @−80° C. On the day of the experiment, cell membrane preparations were made according to standard published methods. The total assay volume was 100 μl:10 μl compound (10×)+(b) 40 μl tracer (2.5×)+50 μl membrane (2×). The tracer used for the assay was tritiated A-804598. The compound can be prepared as described in the literature. […] The assay was terminated by filtration (GF/B filters pre-soaked with 0.3% PEI) and washed with washing buffer (Tris-HCl 50 mM). The IC50 generated in the binding assay was corrected for tracer concentration and affinity of the tracer to derive at the affinity (Ki) of the test compounds.

rat P2X7 [3] = molecular target: T2, rat P2X7 (Rattus norvegicus (Rat), UniProt Q64663); assay: Radioligand binding, rat P2X7-1321N1 cell membranes, tritiated A-804598
rat P2X7 [4] = molecular target: T2, rat P2X7; assay: Ca2+ flux (FLIPR) in 1321N1 cells expressing recombinant rat P2X7 channel; type: cell-based
P2X7 [5] = molecular target: T1, P2X7; assay: cell-based

SMILES	IC50 (P2X7 [1])	Ki (P2X7 [2])	Ki (rat P2X7 [3])	IC50 (rat P2X7 [4])	IC50 (P2X7 [5])
O=C(c1cccc(C(F)(F)F)c1Cl)N1[C@@H]2CCC[C@H]1c1nnc(-c3ccc(F)cn3)n1C2 (single isomer, unassigned) [Example 12, (6R*,10S*)-11-{[2-Chloro-3-(trifluoromethyl)phenyl]carbonyl}-3-(5-fluoropyridin-2-yl)-5,6,7,8,9,10-hexahydro-6,10-epimino[1,2,4]triazolo[4,3-a]azocine]	13.3 nM	12.6 nM	3.4 nM	36.6 nM	126 nM
COc1ccnc(-c2nnc3n2C[C@@H]2CCC[C@H]3N2C(=O)c2cccc(C(F)(F)F)c2Cl)c1 (single isomer, unassigned) [Example 26, (6S*,10R*)-11-{[2-Chloro-3-(trifluoromethyl)phenyl]carbonyl}-3-(4-methoxypyridin-2-yl)-5,6,7,8,9,10-hexahydro-6,10-epimino[1,2,4]triazolo[4,3-a]azocine]	10 nM	30.4 nM	4 nM	1.4 nM	39.8 nM
O=C(c1cccc(C(F)(F)F)c1Cl)N1[C@H]2CCC[C@@H]1c1nnc(-c3ccccn3)n1C2 (single isomer, unassigned) [Example 33, (6R*,10S*)-11-{[2-Chloro-3-(trifluoromethyl)phenyl]carbonyl}-3-pyridin-2-yl-5,6,7,8,9,10-hexahydro-6,10-epimino[1,2,4]triazolo[4,3-a]azocine]	13.4 nM	10.5 nM	3.2 nM	11.3 nM	43.7 nM
